According to patent publication US20070037193A1, “Modulation of peroxisome proliferator-activated receptors” (priority 2005, published 2007):

Tested on: 3T3-L1 cells
Assay: Glucose transport assay, uptake of 2-deoxy-D-[3H] glucose in differentiated 3T3-L1 cells
Assay type: cell-based
Settings: insulin treatment alone, 100 nM
Description: The effect of two of the above-described PGR3/ZADH2 inhibitors, i.e., compounds 12 and 28, on insulin sensitivity was examined as follows. 3T3-L1 cells were induced to differentiate in the same manner as described above. A glucose transport assay was performed by measuring uptake of 2-deoxy-D-[^3H] glucose according to the method described in Fingar et al. (Endocrinology 134:728-735). 1.67 μM of the inhibitor or 45 nM of a PPAR-gamma agonist, i.e., AVANDIA, was added to the cells.
10 μM cytochalasin-B was used to measure background glucose uptake levels. 100 nM of insulin was used to stimulate glucose uptake. Insulin treatment alone in differentiated 3T3-L1 cells increased glucose uptake by more than 10 folds. In the presence of either of those two PGR3/ZADH2 inhibitors, glucose uptake was increased by 30 folds.

In the case of Insulin, the “increase of glucose uptake” value is reported as “more than 10 folds”.
